## Antibody variant affinities, Ab-14 light chain, assay 1

The measurements come from Engelhart et al. 2022 (doi:10.1038/s41597-022-01779-4) through the FLAb antibody collection.

All variants were tested on one target, the spike HR2 peptide PDVDLGDISGINAS (SARS-CoV-2).

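The parent was found by panning a naive human phage display library on the peptide. Variants in AAYL50 differ from the parent at up to three CDR positions; double and triple changes were sampled at random. In AlphaSeq, yeast of one mating type display the scFv and yeast of the other type display the target. Binding brings cells together so that they mate, and sequencing counts the barcode pairs among the diploids. Each replicate has its own calibration line, from reference interactions of the BCL2 family. Each pool was mated in three replicate cultures.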

Each scFv is VH, a 15-residue (Gly4Ser)3 linker, VL, as in the parent Ab-14, and differs from it in the CDRs of the light chain only.
VH: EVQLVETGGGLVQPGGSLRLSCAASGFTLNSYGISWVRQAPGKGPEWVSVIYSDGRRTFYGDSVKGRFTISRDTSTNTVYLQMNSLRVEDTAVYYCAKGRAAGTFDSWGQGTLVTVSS
VL: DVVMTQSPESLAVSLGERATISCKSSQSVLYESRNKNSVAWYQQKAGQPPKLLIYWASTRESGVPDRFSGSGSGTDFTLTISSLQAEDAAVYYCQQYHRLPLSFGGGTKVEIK

Each variant is given by its three light chain CDRs, as the data file delimits them; those of the parent are KSSQSVLYESRNKNSVA, WASTRES, QQYHRLPLS. Every variant below is changed at L30 of the VL (sequential numbering). Scale: log10 of Kd in nM, estimated from mating counts; low values are strong binders. Replicates are averaged; those with no signal do not enter the mean. An entry "no signal" has no value in the source: the pair was not observed among the diploids in any replicate. This suggests poor binding but is not conclusive. Background: pairings of library AAYL50 with three empty control strains gave a value in 18% of cases (median 4.19, 5th percentile 2.99). Values in that range, when seen in few replicates, are hard to tell from nonspecific mating. The control count says in how many pairings with the empty strains this scFv gave a signal.

With KSSQSVWYESRNTNSVA | WAQTRES | QQYHRLPLS the result was 1.19 (3 of 3 replicates; controls 0 of 9). The variant KSSQSVEYESRNKNSVA | YKSTRES | QQYHRLPLS showed 1.46 (3 of 3 replicates; controls 3 of 9). The variant KSSQSVMYESRNKYSVA | WASTRES | QQYHRLPLW gave 2.10 (3 of 3 replicates; controls 4 of 9). For KSNQSNAYESRNKNSVA | WASTRES | QQYHRLPLS, the assay gave 4.04 (1 of 3 replicates; controls 2 of 9). With KSEQSVDYESRNKNSVA | WAHTRES | QQYHRLPLS the result was 1.36 (3 of 3 replicates; controls 2 of 9). The variant KSSQSVQYESNNKLSVA | WASTRES | QQYHRLPLS gave 0.82 (3 of 3 replicates; controls 0 of 9). With KSSQSVDYESVNKNSVA | WASTRSS | QQYHRLPLS the result was 0.88 (3 of 3 replicates; controls 4 of 9). For KSSQSVNYESRNKNSVA | WTSTRES | QQYHNLPLS, the assay gave 3.42 (3 of 3 replicates; controls 2 of 9). With KSDQSVWYESRNKNSVA | WASTRES | QQYHRQPLS the result was 2.33 (3 of 3 replicates; controls 6 of 9).

The variant KSSQSVDYESRNKNSVA | WASTRGS | QQYHRLILS gave 2.68 (3 of 3 replicates; controls 2 of 9). The variant KSSQSVCYESRNRNSVA | WASTRES | QQYHPLPLS gave 1.36 (3 of 3 replicates; controls 3 of 9). With KSHQSVDYESRNKNSVA | WASTDES | QQYHRLPLS the result was 5.66 (1 of 3 replicates; controls 5 of 9). With KSSQSVDYESRNKNSVA | WASTRES | QQYHCEPLS the result was 4.24 (1 of 3 replicates; controls 2 of 9). The variant KSSQSVMYESRNKNSVA | WASTRES | QQYHRLPLS showed 0.86 (3 of 3 replicates; controls 9 of 9). With KSSQSVTYESRNKNSVA | WASQRWS | QQYHRLPLS the result was 1.87 (3 of 3 replicates; controls 1 of 9). With KSSQSVEYESPNKNSVA | WASTRPS | QQYHRLPLS the result was 0.90 (3 of 3 replicates; controls 1 of 9). The variant KSSQSVCYESRNKESVA | WASTRES | VQYHRLPLS showed 5.44 (1 of 3 replicates; controls 6 of 9). With KSSQSVRYESRNKNSVA | WASTRES | MQYHRLPLS the result was 2.17 (3 of 3 replicates; controls 3 of 9).

With KRSQSVKYESRNKNSVA | WASTRES | QQLHRLPLS the result was 4.13 (1 of 3 replicates; controls 1 of 9). The variant KSSQSVPYESRNKNSVA | WESTRES | QQYHRLPLS showed no signal (0 of 3 replicates; controls 0 of 9). For KMSQSVAYESRNKNSVA | WASERES | QQYHRLPLS, the assay gave 3.27 (1 of 3 replicates; controls 0 of 9). The variant KSSQSVKYESRNKNSVA | WASTNES | QQYHRLQLS gave no signal (0 of 3 replicates; controls 2 of 9). With KSSTSVIYESRNKNSVA | WASSRES | QQYHRLPLS the result was 2.38 (3 of 3 replicates; controls 0 of 9). The variant KSSQSVWYESRNKGSYA | WASTRES | QQYHRLPLS gave 4.41 (2 of 3 replicates; controls 5 of 9). The variant NSSQSVAYESRNKNSVA | WASTRES | QDYHRLPLS showed 1.69 (3 of 3 replicates; controls 4 of 9). The variant KWSQSVCYESTNKNSVA | WASTRES | QQYHRLPLS showed 0.74 (3 of 3 replicates; controls 3 of 9). For KSSQSVSYDSRNKNSVA | WASTRES | QQYHRLPLS, the assay gave 0.50 (3 of 3 replicates; controls 0 of 9).

The variant LSSQSVFYESRDKNSVA | WASTRES | QQYHRLPLS gave 1.65 (3 of 3 replicates; controls 6 of 9). The variant KSSQSVMYESRNKNSVP | WASTRES | QQCHRLPLS showed 5.84 (1 of 3 replicates; controls 0 of 9). With KSSQSVQYESRNKNSVA | WASTRES | QQYHRLALS the result was 0.89 (3 of 3 replicates; controls 5 of 9). The variant KSSQWVIYESRNKNSVA | WASTRES | QQYWRLPLS showed 2.18 (3 of 3 replicates; controls 5 of 9). The variant KSSQSVAYESRNKNSFA | WASTRES | QQYHREPLS gave 3.52 (1 of 3 replicates; controls 1 of 9). The variant KSSQSVNYESRNKNSVA | WASTRES | QQYGRLPLS gave 1.30 (3 of 3 replicates; controls 1 of 9). The variant KSSQQVFYCSRNKNSVA | WASTRES | QQYHRLPLS showed no signal (0 of 3 replicates; controls 0 of 9). For KSSQSVKYDSRNKNSVA | WASTTES | QQYHRLPLS, the assay gave 3.03 (3 of 3 replicates; controls 5 of 9). With QSRQSVVYESRNKNSVA | WASTRES | QQYHRLPLS the result was 1.86 (3 of 3 replicates; controls 1 of 9).

The variant KSSQSVEYESRNKNSVA | WASTRES | QQYHRIPLS gave 1.79 (3 of 3 replicates; controls 0 of 9). For KPSQSVEYESRNKNSVA | LASTRES | QQYHRLPLS, the assay gave 2.21 (3 of 3 replicates; controls 0 of 9). For KSSQSVSYESRNPNSVA | WASTRES | QQYHRLPLS, the assay gave 0.74 (3 of 3 replicates; controls 6 of 9). The variant KSSQSVFNESRNKNSVA | WASMRES | QQYHRLPLS showed 0.67 (3 of 3 replicates; controls 1 of 9). With KSDQSVMYEIRNKNSVA | WASTRES | QQYHRLPLS the result was 2.61 (3 of 3 replicates; controls 0 of 9). The variant KSSQSVTYESRNKNSVA | WAHTRES | QQYHRLPLS showed 1.17 (3 of 3 replicates; controls 1 of 9). The variant KSSQSVMYESRRKNSVA | WASTRES | QQYHILPLS gave no signal (0 of 3 replicates; controls 1 of 9). The variant KSSMSVGYESRNKNSVA | WASTRES | QQYHRLPCS gave 4.69 (2 of 3 replicates; controls 1 of 9). The variant KSSQHVKYESGNKNSVA | WASTRES | QQYHRLPLS showed 2.45 (1 of 3 replicates; controls 1 of 9).

With KSSQSVHYESRNKNSVA | WAWTRPS | QQYHRLPLS the result was no signal (0 of 3 replicates; controls 0 of 9). The variant KSSQSVTYYSRNKNSVA | WASTRES | QQYHDLPLS showed 1.51 (3 of 3 replicates; controls 1 of 9). For KSSQSVEYESRNKNSRA | QASTRES | QQYHRLPLS, the assay gave 5.49 (1 of 3 replicates; controls 1 of 9). The variant KSSQSVMYESRWKVSVA | WASTRES | QQYHRLPLS showed 3.72 (1 of 3 replicates; controls 6 of 9). The variant KSSQSVNYESRNKNSVA | WASTRES | QQGHVLPLS gave no signal (0 of 3 replicates; controls 1 of 9).

The 4 strongest on average among those seen in every replicate, once more:

| CDR-L1 | CDR-L2 | CDR-L3 | mean, log10 nM | seen in | control signals |
|---|---|---|---|---|---|
| KSSQSVSYDSRNKNSVA | WASTRES | QQYHRLPLS | 0.50 | 3 of 3 | 0 of 9 |
| KSSQSVFNESRNKNSVA | WASMRES | QQYHRLPLS | 0.67 | 3 of 3 | 1 of 9 |
| KSSQSVSYESRNPNSVA | WASTRES | QQYHRLPLS | 0.74 | 3 of 3 | 6 of 9 |
| KWSQSVCYESTNKNSVA | WASTRES | QQYHRLPLS | 0.74 | 3 of 3 | 3 of 9 |